How the values were obtained:
[1] = biological target: human GR (glucocorticoid receptor) (Homo sapiens, UniProt P04150); test: Steroid hormone nuclear receptor binding assay, GR; conditions: read-out: GR (Ki nM); HEK293 lysate, [3H]-dexamethasone
[2] = biological target: human MR (mineralocorticoid receptor) (Homo sapiens, UniProt P08235); test: Steroid hormone nuclear receptor binding assay, MR; conditions: read-out: MR (Ki nM); HEK293 lysate, [3H]-aldosterone
[3] = biological target: human PR (progesterone receptor) (Homo sapiens, UniProt P06401); test: Steroid hormone nuclear receptor binding assay, PR; conditions: read-out: PR (Ki nM); HEK293 lysate, [3H]-methyltrienolone

Protein sequences, listed by entry. Tags and fused reporters are not part of them. Lines headed by an entry give the natural chain unless they say otherwise; changes in a name come on top.
UniProt P04150: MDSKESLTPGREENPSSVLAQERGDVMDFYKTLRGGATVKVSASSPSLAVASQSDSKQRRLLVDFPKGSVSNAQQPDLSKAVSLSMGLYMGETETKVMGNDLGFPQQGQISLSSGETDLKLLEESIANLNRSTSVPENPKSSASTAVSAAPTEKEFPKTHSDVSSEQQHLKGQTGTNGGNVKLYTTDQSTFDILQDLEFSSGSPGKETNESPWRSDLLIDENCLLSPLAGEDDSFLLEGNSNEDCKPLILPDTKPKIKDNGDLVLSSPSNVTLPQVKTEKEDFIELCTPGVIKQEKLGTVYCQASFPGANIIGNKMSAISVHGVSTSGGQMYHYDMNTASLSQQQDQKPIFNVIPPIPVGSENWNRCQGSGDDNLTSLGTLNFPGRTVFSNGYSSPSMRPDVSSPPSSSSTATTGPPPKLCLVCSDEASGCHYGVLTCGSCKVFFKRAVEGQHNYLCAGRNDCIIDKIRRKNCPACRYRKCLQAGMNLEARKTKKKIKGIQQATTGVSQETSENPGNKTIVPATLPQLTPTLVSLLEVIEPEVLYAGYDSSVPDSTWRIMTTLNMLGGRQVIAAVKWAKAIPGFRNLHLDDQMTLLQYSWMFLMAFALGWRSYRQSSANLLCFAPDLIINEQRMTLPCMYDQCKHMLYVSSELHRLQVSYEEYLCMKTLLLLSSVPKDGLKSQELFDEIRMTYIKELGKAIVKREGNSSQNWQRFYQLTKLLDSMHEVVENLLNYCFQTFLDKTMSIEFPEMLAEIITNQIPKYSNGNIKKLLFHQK
UniProt P08235: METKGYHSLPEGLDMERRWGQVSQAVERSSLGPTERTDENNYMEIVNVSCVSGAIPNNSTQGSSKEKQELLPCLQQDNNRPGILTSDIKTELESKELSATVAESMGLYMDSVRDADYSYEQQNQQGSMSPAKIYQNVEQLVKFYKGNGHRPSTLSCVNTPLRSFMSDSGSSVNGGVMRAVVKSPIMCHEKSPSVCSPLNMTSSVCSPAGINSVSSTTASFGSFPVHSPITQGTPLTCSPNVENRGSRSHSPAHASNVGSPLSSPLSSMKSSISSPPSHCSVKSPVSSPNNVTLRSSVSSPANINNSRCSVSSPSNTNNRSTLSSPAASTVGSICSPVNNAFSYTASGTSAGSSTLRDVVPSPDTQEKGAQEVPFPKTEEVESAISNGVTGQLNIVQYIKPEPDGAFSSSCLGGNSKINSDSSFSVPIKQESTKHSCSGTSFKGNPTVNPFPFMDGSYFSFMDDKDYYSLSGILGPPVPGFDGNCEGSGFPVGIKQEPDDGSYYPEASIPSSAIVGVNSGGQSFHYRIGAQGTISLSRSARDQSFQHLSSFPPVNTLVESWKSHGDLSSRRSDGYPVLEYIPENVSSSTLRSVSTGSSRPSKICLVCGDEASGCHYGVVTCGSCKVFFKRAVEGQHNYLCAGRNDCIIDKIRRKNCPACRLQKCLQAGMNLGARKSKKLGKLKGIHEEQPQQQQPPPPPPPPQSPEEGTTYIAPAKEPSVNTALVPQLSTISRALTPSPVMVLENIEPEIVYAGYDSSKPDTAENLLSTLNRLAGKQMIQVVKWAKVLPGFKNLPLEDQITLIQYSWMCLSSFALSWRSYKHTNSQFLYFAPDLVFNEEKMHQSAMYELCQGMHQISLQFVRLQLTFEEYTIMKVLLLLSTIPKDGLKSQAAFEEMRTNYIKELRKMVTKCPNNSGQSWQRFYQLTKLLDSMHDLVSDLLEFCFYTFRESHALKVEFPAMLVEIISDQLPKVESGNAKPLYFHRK
UniProt P06401: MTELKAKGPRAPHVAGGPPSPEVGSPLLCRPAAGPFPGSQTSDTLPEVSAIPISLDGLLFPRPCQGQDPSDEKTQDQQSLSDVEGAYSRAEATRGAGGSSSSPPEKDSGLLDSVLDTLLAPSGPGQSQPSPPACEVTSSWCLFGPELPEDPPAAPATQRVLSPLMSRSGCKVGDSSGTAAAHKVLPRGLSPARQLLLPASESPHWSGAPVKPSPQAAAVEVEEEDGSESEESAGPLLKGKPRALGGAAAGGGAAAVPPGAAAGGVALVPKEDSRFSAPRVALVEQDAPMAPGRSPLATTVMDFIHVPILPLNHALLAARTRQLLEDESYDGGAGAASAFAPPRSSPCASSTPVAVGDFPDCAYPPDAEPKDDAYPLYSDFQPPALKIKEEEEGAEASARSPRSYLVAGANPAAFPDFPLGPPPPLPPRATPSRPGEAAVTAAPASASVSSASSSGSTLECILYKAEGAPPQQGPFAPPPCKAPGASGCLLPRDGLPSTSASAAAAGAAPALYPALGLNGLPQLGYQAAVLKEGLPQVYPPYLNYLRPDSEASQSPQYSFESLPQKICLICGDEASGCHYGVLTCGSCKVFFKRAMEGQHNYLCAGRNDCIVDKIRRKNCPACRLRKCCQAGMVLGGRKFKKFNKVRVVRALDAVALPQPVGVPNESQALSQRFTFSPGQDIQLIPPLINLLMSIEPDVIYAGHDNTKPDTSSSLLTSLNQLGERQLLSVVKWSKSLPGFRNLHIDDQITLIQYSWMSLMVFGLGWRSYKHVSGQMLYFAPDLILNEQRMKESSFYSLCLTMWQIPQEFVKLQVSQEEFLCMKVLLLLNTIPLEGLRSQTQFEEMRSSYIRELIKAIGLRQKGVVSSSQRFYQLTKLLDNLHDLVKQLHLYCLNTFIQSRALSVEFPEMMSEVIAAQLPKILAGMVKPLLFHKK

Cc1c(N[C@H]2CCC[C@@]2(C)O)ccc(C#N)c1Cl
Ki [1]: 462 nM | Ki [2]: 1840 nM | Ki [3]: 448 nM
